Our source for the IC50 values is patent US9567339B2, “Primary carboxamides as BTK inhibitors” (AbbVie Inc., priority 2013, dated 2017).

Amino acid sequences for entries named in this document (tags omitted). Residues count along the entry.
UniProt Q06187, 393-659: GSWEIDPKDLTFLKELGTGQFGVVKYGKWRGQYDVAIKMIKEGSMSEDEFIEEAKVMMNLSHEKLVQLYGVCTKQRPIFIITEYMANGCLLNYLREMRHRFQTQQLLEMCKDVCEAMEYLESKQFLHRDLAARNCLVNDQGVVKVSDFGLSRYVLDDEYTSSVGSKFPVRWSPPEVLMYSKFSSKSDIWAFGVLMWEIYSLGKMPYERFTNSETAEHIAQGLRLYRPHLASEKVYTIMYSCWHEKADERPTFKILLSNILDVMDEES

This assay concerns the target BTK, recombinant human catalytic domain (aa 393-659) (Homo sapiens (Human), UniProt Q06187). The experiment in a line: In vitro BTK kinase activity measured by time-resolved fluorescence resonance energy transfer (trFRET). The format is biochemical. The settings on record: 0.001 mM ATP, biotin-TYR1 peptide substrate.

The structures appear in SMILES notation.

The IC50 is the concentration needed to halve the response being measured.

For the compound `C=CC(=O)Nc1cccc(-c2ccc(C(N)=O)c3[nH]c(-c4ccccc4S(C)(=O)=O)cc23)c1C` [A.1.34], the half-maximal inhibitory concentration (IC50) lay in the range of 100 to 1000 nM.
